Data published in US20030114529A1, “Hydroxamic acid thrombospondin peptide analog that inhibits aggrecanase activity” (priority 2001, published 2003).
pIC50, pKi: −log10 of the molar value. Like-named read-outs stand apart in the source and are kept apart here.

Amino acid sequences for entries named in this document (tags omitted). Residues count along the entry.
UniProt P08254, 100-477 limits assumed: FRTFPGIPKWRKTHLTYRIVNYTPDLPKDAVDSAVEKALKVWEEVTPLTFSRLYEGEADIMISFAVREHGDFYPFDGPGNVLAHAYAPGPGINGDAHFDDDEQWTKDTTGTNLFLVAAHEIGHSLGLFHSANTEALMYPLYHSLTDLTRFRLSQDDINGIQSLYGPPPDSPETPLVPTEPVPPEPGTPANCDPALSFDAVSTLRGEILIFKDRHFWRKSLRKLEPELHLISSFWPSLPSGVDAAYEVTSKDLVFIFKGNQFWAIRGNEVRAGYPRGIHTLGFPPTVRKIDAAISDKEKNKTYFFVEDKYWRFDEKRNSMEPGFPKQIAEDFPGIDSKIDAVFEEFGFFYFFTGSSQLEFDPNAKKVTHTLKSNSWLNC

Legend:
stromelysin MMP-3 = stromelysin MMP-3 (Homo sapiens, UniProt P08254); assay: Inhibition of stromelysin MMP-3 by hydroxamic acids; format: biochemical; conditions: read-out: Apparent Ki stromelysin MMP-3
[1] = test system: Pig articular cartilage explants; assay: IL-1 induced aggrecan degradation in pig articular cartilage explants (GAG release, DMMB assay); conditions: read-out: Articular Cartilage (IC50, GAG release), IL-1α, 72 hours, inhibitor 0.1 to 10 μM
[2] = test system: ADAMTS-4/ADAMTS-5 (aggrecanase); assay: Inhibition of aggrecan cleavage at Glu1480-Gly1481 by recombinant ADAMTS-4/ADAMTS-5 (Western blot, densitometry); conditions: read-out: Apparent Ki aggrecanase ADAM-TS4/5

Row | SMILES | pKi (stromelysin MMP-3) | pIC50 [1] | pKi ([2]; aggrecan 500 nM, enzyme 5 nM, 2 hours, 37° C., Ki = IC50/(1 + [S]/Km)) | pKi [2]
1 | CNC(=O)C1CCCNN1C(=O)C(CC(C)C)C(C)C(=O)NO (stereo not drawn) | 7.92 | < 5.00 | < 5.00 | 
2 | CNC(=O)[C@H](CC(C)C)NC(=O)[C@@H](CC(=O)NO)CC(C)C | 7.14 | 5.72 |  | 7.42
